In the experiment the test system is MG-63. Description: Antimigratory activity in human MG63 cells at 5 uM measured at 6 to 10 hrs by wound-healing assay relative to control. In kind it is functional.

The source of these data is ChEMBL document CHEMBL4138311, “Antitumorigenic Properties of Omega-3 Endocannabinoid Epoxides” (J Med Chem, 2018).

For the molecule `CC/C=C\C/C=C\C/C=C\CC1OC1C/C=C\C/C=C\CCC(=O)NCCO` (stereo unspecified), the “fold change (FC)” value is on record as 1 - 2.
